Test system: P. berghei (sensitive strain)
Assay: In vivo blood-schizontocidal antimalarial activity, rodent malaria model
Design: species or system mice
Conditions: 100 mg/kg/day × 4, oral

## COc1cc(NC(C)CCCN)c2ncccc2c1 (stereo not shown) [PQ, primaquine]
  P. berghei in vivo activity class: Inactive

From publication PMC3057096 (Bioorganic & medicinal chemistry, 2010)
